In publication PMC2217457 (The Journal of General Physiology, 2004):
Where two headings read alike, the source gives them in different places.

Legend:
mouse AChR αV46I = details: L2 (β2/α2) mutation/wild-type, choline
mouse AChR αN47A = details: choline
mouse AChR αN47K = details: choline
mouse AChR αQ48A = details: L2 (β2/α2) mutation/wild-type, choline
mouse AChR αF137M = details: L2 (β2/α2) mutation/wild-type, choline
mouse AChR αD138E = details: L2 (β2/α2) mutation/wild-type, choline
mouse AChR αN141V = details: L2 (β2/α2) mutation/wild-type, choline
mouse AChR αR20L = details: L2 (β2/α2) mutation/wild-type, choline
mouse AChR αV29L = details: L2 (β2/α2) mutation/wild-type, choline
mouse AChR αL35A = details: L2 (β2/α2) mutation/wild-type, choline
mouse AChR αL40A = details: L2 (β2/α2) mutation/wild-type, choline
mouse AChR αR55A = details: L2 (β2/α2) mutation/wild-type, choline
mouse AChR αR55W = details: L2 (β2/α2) mutation/wild-type, choline
mouse AChR αL56A = details: L2 (β2/α2) mutation/wild-type, choline
mouse AChR αL65V = details: L2 (β2/α2) mutation/wild-type, choline
mouse AChR αL110V = details: L2 (β2/α2) mutation/wild-type, choline
mouse AChR αI116A = details: L2 (β2/α2) mutation/wild-type, choline
mouse AChR αA122L = details: L2 (β2/α2) mutation/wild-type, choline
mouse AChR αS143T = details: L2 (β2/α2) mutation/wild-type, choline
mouse AChR αS143A = details: L2 (β2/α2) mutation/wild-type, choline
mouse AChR αM144L = details: L2 (β2/α2) mutation/wild-type, choline
mouse AChR αM144T = details: L2 (β2/α2) mutation/wild-type, choline
mouse AChR αM144I = details: L2 (β2/α2) mutation/wild-type, choline
mouse AChR αM144A = details: L2 (β2/α2) mutation/wild-type, choline
mouse AChR αL146M = details: L2 (β2/α2) mutation/wild-type, choline
mouse AChR αL146F = details: L2 (β2/α2) mutation/wild-type, choline

`C[N+](C)(C)CCO` [Choline, choline] was tested, and the L2 ratio (mouse AChR αV46I) was 2.638, the L2 ratio (mouse AChR αN47A; L2 (β2/α2) mutation/wild-type) was 13.396 and the “channel opening rate constant, fold faster than the wt” value (mouse AChR αN47A) was ~9 fold. For the same compound, the L2 ratio (mouse AChR αN47K; L2 (β2/α2) mutation/wild-type) was 5.333, the “channel opening rate constant, fold faster than the wt” value (mouse AChR αN47K) was ~6 fold and the L2 ratio (mouse AChR αQ48A) was 5.787. The L2 ratio (mouse AChR αQ48A; listed as choline) was ~6, the L2 ratio (mouse AChR αF137M) was 4.609 and the L2 ratio (mouse AChR αD138E) was 3.420. For the same compound, the L2 ratio (mouse AChR αN141V) was 3.899, the L2 ratio (mouse AChR αR20L) was 3.589 and the “α2 Choline (diliganded channel-closing rate constant)” value (mouse AChR αR20A; 0.4 mM choline) was 3,122. It also gave an L2 ratio (mouse AChR αR20A; L2 (β2/α2) mutation/wild-type, choline) of 1.401, an L2 ratio (mouse AChR αV29L) of 1.576 and an L2 ratio (mouse AChR αL35A) of 1.565. It also gave an L2 ratio (mouse AChR αL40A) of 3.990, an L2 ratio (mouse AChR αR55A) of 1.577 and an L2 ratio (mouse AChR αR55W) of 0.707. The L2 ratio (mouse AChR αL56A) was 1.670, the L2 ratio (mouse AChR αL65V) was 1.193 and the L2 ratio (mouse AChR αL110V) was 0.778. The L2 ratio (mouse AChR αI116A) was 1.024, the L2 ratio (mouse AChR αA122L) was 3.482 and the L2 ratio (mouse AChR αS143T) was 1.117. The L2 ratio (mouse AChR αS143A) was 0.539, the L2 ratio (mouse AChR αM144L) was 6.563 and the L2 ratio (mouse AChR αM144T) was 0.953. The L2 ratio (mouse AChR αM144I) was 0.686, the L2 ratio (mouse AChR αM144A) was 0.530 and the L2 ratio (mouse AChR αL146M) was 1.010. It also gave an L2 ratio (mouse AChR αL146F) of 0.905.
